Test results as given in US10442819B2, “Tricyclic compounds as inhibitors of mutant IDH enzymes” (Merck Sharp & Dohme Corp., priority 2014, dated 2019).
pIC50: −log10 of the molar value.

Amino acid sequences for entries named in this document (tags omitted).
UniProt O75874, whole entry R132H: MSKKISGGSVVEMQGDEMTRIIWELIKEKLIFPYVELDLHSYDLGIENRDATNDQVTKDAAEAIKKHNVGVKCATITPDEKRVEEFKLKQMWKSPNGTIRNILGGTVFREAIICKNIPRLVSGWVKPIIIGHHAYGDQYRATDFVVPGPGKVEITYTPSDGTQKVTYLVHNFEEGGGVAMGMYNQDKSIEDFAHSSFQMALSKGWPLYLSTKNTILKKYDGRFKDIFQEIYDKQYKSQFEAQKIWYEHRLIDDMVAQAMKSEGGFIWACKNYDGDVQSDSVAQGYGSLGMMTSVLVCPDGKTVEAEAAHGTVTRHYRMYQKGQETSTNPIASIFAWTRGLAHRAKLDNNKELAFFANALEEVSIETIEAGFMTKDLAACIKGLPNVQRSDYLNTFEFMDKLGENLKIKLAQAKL

Molecular target: R132H mutant IDH1 enzyme (Homo sapiens (Human), UniProt O75874, R132H)
Experiment: R132H IDH1 Enzymatic Assay
Type: biochemical
Details: R132H mutant IDH1 enzyme 1.5 nM final; luminescence readout; read-out: IC50

| SMILES | pIC50 |
| --- | --- |
| CO[C@H]1CC[C@H](C(=O)N2Cc3cccnc3Nc3ccc(N4CCc5nn(C)cc5C4)cc32)CC1 [Example 275, 6-[(trans-4-methoxycyclohexyl)carbonyl]-8-(2-methyl-2,4,6,7-tetrahydro-5H-pyrazolo[4,3-c]pyridin-5-yl)-6,11-dihydro-5H-pyrido[2,3-b][1,5]benzodiazepine] | 6.54 |
| CO[C@H]1CC[C@H](C(=O)N2Cc3cccnc3Nc3ccc(N4CCn5c(nnc5C(C)C)C4)cc32)CC1 [Example 266, 6-[(trans-4-methoxycyclohexyl)carbonyl]-8-[3-(1-methylethyl)-5,6-dihydro[1,2,4]triazolo[4,3-a]pyrazin-7(8H)-yl]-6,11-dihydro-5H-pyrido[2,3-b][1,5]benzodiazepine] | 6.85 |
| CC(C)O[C@H]1CC[C@H](C(=O)N2Cc3cccnc3Nc3ccc(C4COC4)cc32)OC1 [Example 26, ((2R,5S)-5-isopropoxytetrahydro-2H-pyran-2-yl)(8-(oxetan-3-yl)-5,11-dihydro-6H-benzo[b]pyrido[2,3-e][1,4]diazepin-6-yl)methanone] | 7.82 |
| CO[C@H]1CC[C@H](C(=O)N2Cc3cccnc3Nc3ccc(N4CC5CC4CO5)cc32)CC1 (stereo partly drawn) [Example 296, 6-[(trans-4-methoxycyclohexyl)carbonyl]-8-(2-oxa-5-azabicyclo[2.2.1]hept-5-yl)-6,11-dihydro-5H-pyrido[2,3-b][1,5]benzodiazepine] | 6.16 |
| CO[C@H]1CC[C@H](C(=O)N2Cc3cccnc3Nc3ccc(CN(C)C(C4CC4)C(F)(F)F)cc32)CC1 (relative stereo) [Example 5, 1-Cyclopropyl-2,2,2-trifluoro-N-({6-[(trans-4-methoxycyclohexyl)carbonyl]-6,11-dihydro-5H-pyrido[2,3-b][1,5]benzodiazepin-8-yl}methyl)-N-methylethanamine] | 6.55 |
| COC1(C)CCC(C(=O)N2Cc3cccnc3Nc3ccc(N4CCOCC4)cc32)CC1 (stereo not shown) [Example 88, 6-[(4-methoxy-4-methylcyclohexyl)carbon-yl]-8-morpholin-4-yl-6,11-dihydro-5H-pyrido[2,3-b][1,5]benzodiazepine] | 6.01 |
| CO[C@H]1CC[C@H](C(=O)N2Cc3cccnc3Nc3ccc(N4CCn5nncc5C4)cc32)CC1 [Example 271, 8-(6,7-dihydro[1,2,3]triazolo[1,5-a]pyrazin-5(4H)-yl)-6-[(trans-4-methoxycyclohexyl)carbonyl]-6,11-dihydro-5H-pyrido[2,3-b][1,5]benzodiazepine] | 6.16 |
| CC(C)OC1CCC(C(=O)N2Cc3cccnc3Nc3ccc(-c4ccc(C(N)=O)nc4)cc32)CC1 (stereo not shown) [Example 189, 5-(6-{[4-(Propan-2-yloxy)cyclohexyl]carbonyl}-6,11-dihydro-5H-pyrido[2,3-b][1,5]benzodiazepin-8-yl)pyridine-2-carboxamide] | 7.55 |
| CC1(C)CC(C(=O)N2Cc3cccnc3Nc3ccc(N4CC5CCC4CN5C(=O)OC(C)(C)C)cc32)C1 (stereo not shown) [Example 193, tert-butyl 5-{6-[(3,3-dimethylcyclobutyl)carbonyl]-6,11-dihydro-5H-pyrido[2,3-b][1,5]benzodiazepin-8-yl}-2,5-diazabicyclo[2.2.2]octane-2-carboxylate] | 6.90 |
| CCO[C@H]1CC[C@@H](C(=O)N2Cc3cccnc3Nc3ccc(N4C[C@H]5CC[C@@H]4CO5)cc32)C[C@@H]1F (single isomer, unassigned) [Example 323] | 7.92 |
| CC(C)O[C@H]1CC[C@H](C(=O)N2Cc3cccnc3Nc3ccc(N4CC5CCC4CO5)cc32)CC1 (single isomer, unassigned) [Example 192, 6-{[Trans-4-(1-methylethoxy)cyclohexyl]carbonyl}-8-(2-oxa-5-azabicyclo[2.2.2]oct-5-yl)-6, 11-dihydro-5H-pyrido[2,3-b][1,5]benzodiazepine] | 7.42 |
| CC(N1CCC(C(=O)N2Cc3cccnc3Nc3ccc(N4CCOCC4)cc32)CC1)C(F)(F)F (stereo not shown) [Example 154, 8-morpholin-4-yl-6-{[1-(2,2,2-trifluoro-1-methylethyl)piperidin-4-yl]carbonyl}-6,11-dihydro-5H-pyrido[2,3-b][1,5]benzodiazepine] | 7.25 |
| CCO[C@H]1CC[C@@H](C(=O)N2Cc3cccnc3Nc3ccc(N4CCOCC4)cc32)CC1 [Example 114, 6-[(cis-4-ethoxycyclohexyl)carbon-yl]-8-morpholin-4-yl-6,11-dihydro-5H-pyrido[2,3-b][1,5]benzodiazepine] | 6.69 |
| COCCN(CCOC)c1ccc2c(c1)N(C(=O)[C@H]1CC[C@H](OC)CC1)Cc1cccnc1N2 [Example 240, 6-[(trans-4-methoxycyclohexyl)carbonyl]-N,N-bis(2-methoxyethyl)-6,11-dihydro-5H-pyrido[2,3-b][1,5]benzodiazepin-8-amine] | 6.74 |
| COC1CCC(C(=O)N2Cc3cccnc3Nc3ccc(Br)cc32)CC1 (stereo not shown) [Example 74, 8-bromo-6-[(4-methoxycyclohexyl)car-bonyl]-6,11-dihydro-5H-pyrido[2,3-b][1,5]benzodiazepine] | 6.48 |
| CC(C)O[C@H]1CC[C@H](C(=O)N2Cc3cccnc3Nc3ccc(C4CC4COC(F)F)cc32)OC1 (stereo partly drawn) [Example 36, (8-(2-((difluoromethoxy)methyl)cyclopropyl)-5,11-dihydro-6H-benzo[b]pyrido[2,3-e][1,4]diazepin-6-yl)((2R,5S)-5-isopropoxytetrahydro-2H-pyran-2-yl)methanone] | 7.92 |
| O=C(C1CC(c2ccccc2)C1)N1Cc2cccnc2Nc2ccccc21 (stereo not shown) [Example 1, 6-[(3-Phenylcyclobutyl)carbonyl]-6,11-dihydro-5H-pyrido[2,3-b][1,5]benzodiazepine] | 7.14 |
| CCO[C@H]1CC[C@@H](C(=O)N2Cc3cccnc3Nc3ccc(N4CCOCC4)cc32)C[C@H]1C [Example 152, 6-{[(1R,3R,4S)-4-ethoxy-3-methylcyclohexyl]carbon-yl}-8-morpholin-4-yl-6,11-dihydro-5H-pyrido[2,3-b][1,5]benzodiazepine] | 7.34 |
| CO[C@H]1CC[C@H](C(=O)N2Cc3cccnc3Nc3ccc(N(C)CC4CCCO4)cc32)CC1 (stereo partly drawn) [Example 281, 6-[(trans-4-methoxycyclohexyl)carbonyl]-N-methyl-N-(tetrahydrofuran-2-ylmethyl)-6,11-dihydro-5H-pyrido[2,3-b][1,5]benzodiazepin-8-amine] | 7.03 |
| CC(C)O[C@H]1CC[C@H](C(=O)N2Cc3cccnc3Nc3ccc(C4CC(O)CO4)cc32)OC1 (stereo partly drawn) [Example 145, (8-(4-hydroxytetrahydrofuran-2-yl)-5,11-dihydro-6H-benzo[b]pyrido[2,3-e][1,4]diazepin-6-yl)((2R,5S)-5-isopropoxytetrahydro-2H-pyran-2-yl)methanone] | 7.09 |
| CC(C)O[C@H](C)[C@H]1CC[C@@H](C(=O)N2Cc3cccnc3Nc3ccc(N4CCOCC4)cc32)CC1 [Example 171, [8-(Morpholin-4-yl)-5,11-dihydro-6H-pyrido[2,3-b][1,5]benzodiazepin-6-yl]{cis-4-[(1R)-1-(propan-2-yloxy)ethyl]cyclohexyl}methanone] | 6.92 |

The remaining lines, values ahead:

| pIC50 | SMILES |
| --- | --- |
| 6.99 | CO[C@H]1CC[C@@H](C(=O)N2Cc3cccnc3Nc3ccc(CNC4(C(F)(F)F)CC4)cc32)CC1 [Example 485, N-({6-[(Cis-4-methoxycyclohexyl)carbonyl]-6,11-dihydro-5H-pyrido[2,3-b][1,5]benzodiazepin-8-yl}methyl)-1-(trifluoromethyl)cyclopropanamine] |
| 7.44 | CON=C1CCC(C(=O)N2Cc3cccnc3Nc3ccc(C4=COCCO4)cc32)CC1 (stereo not shown) [Example 391, 4-{[8-(5,6-dihydro-1,4-dioxin-2-yl)-5,11-dihydro-6H-pyrido[2,3-b][1,5]benzodiazepin-6-yl]carbonyl}cyclohexanone O-methyloxime] |
| 6.97 | COC1CCC(C(=O)N2Cc3cccnc3Nc3ccc(CCc4ccccn4)cc32)CC1 (stereo not shown) [Example 419, 6-[(4-methoxycyclohexyl)carbonyl]-8-(2-pyridin-2-ylethyl)-6,11-dihydro-5H-pyrido[2,3-b][1,5]benzodiazepine] |
| 7.28 | CO[C@H]1CC[C@H](C(=O)N2Cc3cccnc3Nc3ccc(-c4ccc(C#N)s4)cc32)CC1 [Example 360, 5-{6-[(trans-4-methoxycyclohexyl)carbonyl]-6,11-dihydro-5H-pyrido[2,3-b][1,5]benzodiazepin-8-yl}thiophene-2-carbonitrile] |
| 6.41 | O=C(C1CCN(CC(F)(F)F)CCO1)N1Cc2cccnc2Nc2ccc(N3CCOCC3)cc21 (stereo not shown) [Example 556, (8-Morpholino-5,11-dihydro-6H-benzo[b]pyrido[2,3-e][1,4]diazepin-6-yl)(4-(2,2,2-trifluoroethyl)-1,4-oxazepan-7-yl)methanone] |
| 7.41 | COC1(c2ccc3c(c2)N(C(=O)[C@H]2CC[C@H](OC(C)C)CC2)Cc2cccnc2N3)CCOCC1 [Example 524, [8-(4-methoxytetrahydro-2H-pyran-4-yl)-5,11-dihydro-6H-pyrido[2,3-b][1,5]benzodiazepin-6-yl][trans-4-(propan-2-yloxy)cyclohexyl]methanone] |
| 6.63 | CO[C@H]1CC[C@H](C(=O)N2Cc3cccnc3Nc3ccc(C(=O)Nc4ccccc4F)cc32)CC1 [Example 509, N-(2-Fluorophenyl)-6-[(trans-4-methoxycyclohexyl)carbonyl]-6,11-dihydro-5H-pyrido[2,3-b][1,5]benzodiazepine-8-carboxamide] |
| 6.06 | CO[C@H]1CC[C@H](C(=O)N2Cc3cccnc3Nc3ccc(N4CCOC4=O)cc32)CC1 [Example 489, 3-{6-[(Trans-4-methoxycyclohexyl)carbonyl]-6,11-dihydro-5H-pyrido[2,3-b][1,5]benzodiazepin-8-yl}-1,3-oxazolidin-2-one] |
| 7.01 | CO[C@H]1CC[C@H](C(=O)N2Cc3cccnc3Nc3ccc(-c4cnn5ncccc45)cc32)CC1 [Example 361, 6-[(trans-4-methoxycyclohexyl)carbonyl]-8-pyrazolo[1,5-b]pyridazin-3-yl-6,11-dihydro-5H-pyrido[2,3-b][1,5]benzodiazepine] |
| 7.14 | COc1ccc2c(c1)N(C(=O)[C@H]1CC[C@H](OC(C)C)CC1)Cc1cccnc1N2 [Example 519] |
